Molecular target: Adenosine receptors; A1 & A2 (Rattus norvegicus) (UniProt P29276+P25099+P30543)
Assay: Selectivity ratio between A1 and A2-receptors estimated as A2/A1
Assay type: protein assay

Protein sequences, listed by entry. Tags and fused reporters are not part of them. Lines headed by an entry give the natural chain unless they say otherwise; changes in a name come on top.
UniProt P29276: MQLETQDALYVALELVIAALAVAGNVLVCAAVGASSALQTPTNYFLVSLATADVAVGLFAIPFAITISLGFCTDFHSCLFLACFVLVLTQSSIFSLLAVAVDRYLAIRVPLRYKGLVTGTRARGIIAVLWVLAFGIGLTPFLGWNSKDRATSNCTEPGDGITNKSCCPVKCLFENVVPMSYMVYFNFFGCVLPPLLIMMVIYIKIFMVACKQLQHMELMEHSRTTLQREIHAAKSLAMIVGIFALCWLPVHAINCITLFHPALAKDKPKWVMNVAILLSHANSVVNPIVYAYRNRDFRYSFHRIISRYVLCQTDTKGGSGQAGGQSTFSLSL
UniProt P25099, whole entry, looked up: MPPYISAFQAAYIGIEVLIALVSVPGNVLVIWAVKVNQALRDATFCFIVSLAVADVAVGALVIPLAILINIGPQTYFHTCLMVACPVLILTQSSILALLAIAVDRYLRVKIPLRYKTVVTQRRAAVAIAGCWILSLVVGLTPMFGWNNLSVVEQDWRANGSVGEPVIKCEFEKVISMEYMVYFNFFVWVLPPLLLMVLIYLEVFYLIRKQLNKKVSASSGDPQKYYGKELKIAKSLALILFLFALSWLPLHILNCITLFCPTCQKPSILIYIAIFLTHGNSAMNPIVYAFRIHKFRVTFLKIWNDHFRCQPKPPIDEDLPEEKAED
UniProt P30543, whole entry, looked up: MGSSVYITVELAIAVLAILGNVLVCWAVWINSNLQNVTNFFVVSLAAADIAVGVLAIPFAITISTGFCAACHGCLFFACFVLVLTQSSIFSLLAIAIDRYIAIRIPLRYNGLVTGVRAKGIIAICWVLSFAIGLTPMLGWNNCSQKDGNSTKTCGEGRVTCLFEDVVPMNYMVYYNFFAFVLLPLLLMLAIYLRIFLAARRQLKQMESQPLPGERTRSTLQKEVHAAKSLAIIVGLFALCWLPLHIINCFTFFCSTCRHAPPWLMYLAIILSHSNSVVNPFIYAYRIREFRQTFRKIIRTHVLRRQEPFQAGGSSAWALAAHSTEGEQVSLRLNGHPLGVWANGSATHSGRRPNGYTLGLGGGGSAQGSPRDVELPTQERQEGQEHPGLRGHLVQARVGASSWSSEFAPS

Row | Selectivity ratio | Compound
1 | > 469 | C[C@@H](c1ccccc1)n1c2ccccc2c2c(N)nc(-c3ccccc3)nc21
2 | 2380 | C[C@H](c1ccccc1)n1c2ccccc2c2c(N)nc(-c3ccccc3)nc21

Source: ChEMBL document CHEMBL1129727, “Chiral pyrrolo[2,3-d]pyrimidine and pyrimido[4,5-b]indole derivatives: structure-activity relationships of potent, highly stereoselective A1-adenosine receptor antagonists” (J Med Chem, 1996)
